{"source": "patent US20230293519A1", "about": "“INTEGRIN INHIBITORS AND USES THEREOF IN COMBINATION WITH OTHER AGENTS” (Pliant Therapeutics, Inc., priority 2021, published 2023)", "test_system": "Type I Collagen gene Col1a1 expression", "assay": "Precision cut lung slices of mice under acute bleomycin exposure", "type": "cell-based, mouse", "method": "Mice (C57BL/6) were administered 3 U/kg of bleomycin (Teva Pharmaceuticals; North Wales, PA) on day 0 via oropharyngeal aspiration while under anesthesia. On day 14, precision cut lung slices were obtained. Following euthanization, 2% low gelling temp agarose was injected into the mouse lungs via the trachea. […] The lobes were then subjected to precision slicing to obtain samples for culture using a microtome (Compresstome VF-300-0Z, Precisionary; Greenville, NC). Individual slices were distributed in a multiwell culture plate and cultured for 3 days under control (DMSO) and test compound conditions."}
{"smiles": "Cc1cc(C)n(-c2cccc([C@H](CC(=O)O)CN3CC[C@H](CCc4ccc5c(n4)NCCC5)C3)c2)n1", "note": "[first pan-αv small molecule inhibitor, (3S)-3-[3-(3,5-dimethyl-1H-pyrazol-1-yl)phenyl]-4-{(3S)-3-[2-(5,6,7,8-tetrahydro-1,8-naphthyridin-2-yl)ethyl]-1-pyrrolidinyl}butanoic acid]", "values": [{"measurement": "Type I Collagen gene Col1a1 expression vs DMSO control", "value": "reduced"}]}
